From ChEMBL document CHEMBL4507308 (2021) come the findings set out here.

Sequences of proteins named here, by UniProt entry; tags and fusion partners are left off.
UniProt Q99720, whole entry, looked up: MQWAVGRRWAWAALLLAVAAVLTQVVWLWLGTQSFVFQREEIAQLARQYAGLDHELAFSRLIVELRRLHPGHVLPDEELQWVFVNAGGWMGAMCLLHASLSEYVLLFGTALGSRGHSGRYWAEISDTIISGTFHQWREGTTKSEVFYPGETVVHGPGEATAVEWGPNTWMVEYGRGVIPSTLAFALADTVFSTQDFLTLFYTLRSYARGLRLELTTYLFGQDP

This assay concerns the target Sigma non-opioid intracellular receptor 1 (Homo sapiens, UniProt Q99720). Put plainly: GPCRScan assay: inhibition of Sigma 1.

SMILES strings stand for the structures.

Compound `Cc1cnc(-c2cc(Cl)ccc2F)cc1-n1c(=O)n(CC(N)=O)c2cnccc21` [TP-008] displayed an inhibitory constant (Ki) of 10 µM.

What is called Ki is a dissociation constant, usually derived from enzyme kinetics or from competition with a known ligand. The low end stands for tighter binding, the high end for weaker binding.
